# AlphaSeq binding of Ab-14 heavy chain variants to a spike HR2 peptide

Reference: Li et al. 2023, doi:10.1038/s41467-023-39022-2. File: FLAb, binding data.

The target is the same throughout: PDVDLGDISGINAS, from the HR2 region of SARS-CoV-2 spike.

Parent scFv Ab-14: VH joined to VL by the linker GGGGSGGGGSGGGGS. Changes lie in the heavy chain CDRs alone.
VH: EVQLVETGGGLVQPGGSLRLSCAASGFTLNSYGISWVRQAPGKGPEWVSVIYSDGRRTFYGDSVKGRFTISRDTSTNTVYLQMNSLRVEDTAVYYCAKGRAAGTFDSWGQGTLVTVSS
VL: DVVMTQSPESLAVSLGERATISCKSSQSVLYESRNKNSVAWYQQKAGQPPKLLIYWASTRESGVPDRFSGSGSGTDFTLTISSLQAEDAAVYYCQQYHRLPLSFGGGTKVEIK

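The starting antibody came from a phage panning campaign against this peptide. The variants were designed computationally from a first round of random CDR variants and then made and measured. Several design methods are mixed in this list. In AlphaSeq, yeast of one mating type display the scFv and yeast of the other type display the target. Pairs that bind mate more often; barcode pairs of the diploids are counted by sequencing. The ratio of observed to expected reads was calibrated, replicate by replicate, on BCL2-family standards whose Kd was known from biolayer interferometry. Mating was done six times.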

Each variant is given by its three heavy chain CDRs, as the data file delimits them; those of the parent are GFTLNSYGIS, VIYSDGRRTFYGDSVK, GRAAGTFDS.
Values are log10 of the apparent Kd in nM; lower means stronger binding.
Averages over replicates are reported, and they cover detected replicates only.
"nd" means that the variant was in the library but no mating with the target was seen in any replicate; the authors take this as a sign of poor binding, and no number exists.

| CDR-H1 | CDR-H2 | CDR-H3 | mean, log10 nM | seen in | signal with controls |
|---|---|---|---|---|---|
| GFWLNEYGIS | VIYSDGRRTFYHDSVK | GRAAGTFDQ | 1.40 | 6 of 6 | 0 of 18 |
| GFDLEDYGIS | VIYADGRRTFYADSVK | GNVAGTFDA | 0.01 | 6 of 6 | 0 of 18 |
| GFDLDEYGIS | VIYADGRRTFYADSVK | GQVAGTFDV | -0.67 | 6 of 6 | 0 of 18 |
| GFNLDEYGIS | VIYADGMRTAYSDSVK | GNVAGTFDL | -0.24 | 6 of 6 | 1 of 18 |
| GFTLNSYGIS | VIYSDGRRTFYGDSVK | GRCAVQFDS | nd | 0 of 6 | 0 of 18 |
| GFTLNQYGIS | VIYSDGRRTFYSDSVK | GNAAGTFDS | -0.45 | 6 of 6 | 0 of 18 |
| GFTLNSYGIS | VIYSDGRRVFYEDSVK | GREALTTSS | nd | 0 of 6 | 1 of 18 |
| GFSLNDYGIS | VIYSDGRRTFYGDSVK | GRTAGTFDD | 0.33 | 2 of 6 | 0 of 18 |
| GFSLNDYGIS | VIYSDGRRTFYADSVK | GNAAGTFDS | 0.01 | 6 of 6 | 1 of 18 |
| GFNLEEYGIS | VIYADGKRTFYIDAVK | GTWYVFGLG | nd | 0 of 6 | 0 of 18 |
| GFDLNEYGIS | VIYADGKRTAYADSVK | GENAGTFDA | -0.48 | 6 of 6 | 1 of 18 |
| GFTLNSYGIS | VIYSDGRRTFYGDSYK | GWAAGTFDS | nd | 0 of 6 | 0 of 18 |
| GFDLNEYGIS | VIYADGRRTSYADSVK | GENAGTFDV | 0.10 | 6 of 6 | 1 of 18 |
| GFDLDEYGVS | VIYADGIRSTYADAVK | GKHGGAFFV | nd | 0 of 6 | 0 of 18 |
| GFNLNNYGIS | VIYSDGRRTFYSDSVK | GRAAGTFDS | 0.09 | 6 of 6 | 0 of 18 |
| GFDLNEYGVS | VIYADGHRTQYSDKVK | GSESASIQN | nd | 0 of 6 | 0 of 18 |
| GFDLNSYGIS | VIYSDGRRTFYADSVK | GQEAGTFDS | nd | 0 of 6 | 0 of 18 |
| GFDLNEYGIS | VIYADGMRTQYADDVK | GENAGTFDV | -0.25 | 6 of 6 | 0 of 18 |
| GFDINSYGIS | VIYSDGRRTFYGDSVK | GRNAGTFDS | -0.09 | 3 of 6 | 0 of 18 |
| GFPLNSYGIS | VIYSDGRRTFYDDSVK | GKLAGTFDS | 1.13 | 6 of 6 | 2 of 18 |
| GFTLNEYGIS | VIYSDGRRRFYTDSVK | GRQAGTFDS | 0.35 | 6 of 6 | 0 of 18 |
| GFSLNDYGIS | VIYSDGRRTFYGDSVK | GRYAGTFDT | 0.09 | 6 of 6 | 0 of 18 |
| YFSLNSYGIS | VIYSDGRRTFYADSVK | GRTAGTFDS | 0.67 | 3 of 6 | 0 of 18 |
| GFTLNSYGIS | VIYADGVRTFYGDSVK | GTAAGTFDS | -0.26 | 6 of 6 | 0 of 18 |
| GFDLEDYGIS | VIYADGRRTAYIDSVK | GEHAGTFDV | -0.19 | 6 of 6 | 0 of 18 |
| GFTLNEYGIS | VIYSDGRRTFYGDSVK | GEAVGTFDS | nd | 0 of 6 | 0 of 18 |
| GFTLDSYGIS | VIYSDGRRTFYDDSVK | GHLAGTFDS | 0.50 | 6 of 6 | 0 of 18 |
| GFDLNEYGIS | VIYADGQRTAYADSVK | GGNAGTFDQ | -0.25 | 6 of 6 | 0 of 18 |
| GFDLESYGIS | VIYADGRRTFYSDSVK | GSNAGTFDI | -0.50 | 6 of 6 | 0 of 18 |
| GFDLNEYGIS | VIYADGMRTAYADSVK | GNIAGTFDI | -0.37 | 6 of 6 | 0 of 18 |
| GFFLNEYGIS | VIYSDGRRTFYGDSVK | GGAAVTFDQ | nd | 0 of 6 | 0 of 18 |
| GQDLNEYGIS | VIYADGLRTAYTNNVK | GVQSGFDQG | nd | 0 of 6 | 0 of 18 |
| GFDLNEYGIS | VIYADGRRTFYADNVK | GQNAGTFDV | -0.49 | 6 of 6 | 1 of 18 |
| GFSLNSYGIS | VIYSDGRRTFYADNVK | GRTAGTFDS | 0.77 | 6 of 6 | 0 of 18 |
| GFDLNEYGIS | VIYADGKRTMYADSVK | GNVAGTFDV | 0.24 | 5 of 6 | 0 of 18 |
| GFDLNEYGIS | VIYADGRRTAYSDDVK | GNQAGTFDV | 1.20 | 6 of 6 | 1 of 18 |
| GFDLNEYGIS | VIYADGMRTFYDDSVK | GQLAGTFDV | -0.67 | 6 of 6 | 1 of 18 |
| GFEVDEYGIS | VIYADGKRSMYADKVK | GVIAGMMHV | 0.83 | 6 of 6 | 0 of 18 |
| GFDLNSYGIS | VIYSDGRRTFYCDSVK | GREAGTFDT | 0.60 | 6 of 6 | 1 of 18 |
| GFSLNSYGIS | VIYSDGRRTFYADSVK | GNAAGTFDS | -0.09 | 6 of 6 | 0 of 18 |
| GFDLNSYGIS | VIYSDGRRTFYGDSVK | GRIAGTFES | 0.43 | 6 of 6 | 0 of 18 |
| GFRLNDYGIS | VIYSDGRRTFYGDSVK | GTAAGTFDS | -0.11 | 6 of 6 | 0 of 18 |
| GFQIDEYGIS | VIYADGKRSGYKNSVK | GNFNVSGSV | nd | 0 of 6 | 1 of 18 |
| GFDLNEYGIS | VIYADGVRKFYADKVK | GENAGTFNV | -0.26 | 6 of 6 | 0 of 18 |
| GFSLNSYGIS | VIYSDGRRTFYQDSVK | GEAAGTFDT | 0.21 | 6 of 6 | 0 of 18 |

A selection of 7 entries from above:

| CDR-H1 | CDR-H2 | CDR-H3 | mean, log10 nM | seen in | signal with controls |
|---|---|---|---|---|---|
| GFSLNDYGIS | VIYSDGRRTFYGDSVK | GRTAGTFDD | 0.33 | 2 of 6 | 0 of 18 |
| GFEVDEYGIS | VIYADGKRSMYADKVK | GVIAGMMHV | 0.83 | 6 of 6 | 0 of 18 |
| GFTLNEYGIS | VIYSDGRRTFYGDSVK | GEAVGTFDS | nd | 0 of 6 | 0 of 18 |
| GFFLNEYGIS | VIYSDGRRTFYGDSVK | GGAAVTFDQ | nd | 0 of 6 | 0 of 18 |
| GFTLNSYGIS | VIYSDGRRTFYGDSYK | GWAAGTFDS | nd | 0 of 6 | 0 of 18 |
| GFTLNSYGIS | VIYSDGRRTFYGDSVK | GRCAVQFDS | nd | 0 of 6 | 0 of 18 |
| GFDLEDYGIS | VIYADGRRTAYIDSVK | GEHAGTFDV | -0.19 | 6 of 6 | 0 of 18 |

In the paper, a design with two or fewer of six values counts as a poor binder.
Empty control strains, which show no peptide, gave a signal in 1% of pairings with all heavy chain designs; the median was 2.08 and 95% of these signals were weaker than 0.84. No background was subtracted. Also given: how often the same scFv was detected with the empty control strains.
The range of this assay differs from that of the first round, and the authors advise against merging the two.
Of ten entries with the parent sequence, four were seen in most replicates (averages 0.34 to 2.37), three in one and three in none, so single entries are noisy.